The record followed here is PubChem BioAssay AID1224863 (Southern Research Institute, 2016).

Sequences of proteins named here, by UniProt entry; tags and fusion partners are left off. A line that says so, or that is headed by a name, gives the form on record, which may keep a tag or linker.
UniProt P13569, with tags, fused parts or gaps F508del: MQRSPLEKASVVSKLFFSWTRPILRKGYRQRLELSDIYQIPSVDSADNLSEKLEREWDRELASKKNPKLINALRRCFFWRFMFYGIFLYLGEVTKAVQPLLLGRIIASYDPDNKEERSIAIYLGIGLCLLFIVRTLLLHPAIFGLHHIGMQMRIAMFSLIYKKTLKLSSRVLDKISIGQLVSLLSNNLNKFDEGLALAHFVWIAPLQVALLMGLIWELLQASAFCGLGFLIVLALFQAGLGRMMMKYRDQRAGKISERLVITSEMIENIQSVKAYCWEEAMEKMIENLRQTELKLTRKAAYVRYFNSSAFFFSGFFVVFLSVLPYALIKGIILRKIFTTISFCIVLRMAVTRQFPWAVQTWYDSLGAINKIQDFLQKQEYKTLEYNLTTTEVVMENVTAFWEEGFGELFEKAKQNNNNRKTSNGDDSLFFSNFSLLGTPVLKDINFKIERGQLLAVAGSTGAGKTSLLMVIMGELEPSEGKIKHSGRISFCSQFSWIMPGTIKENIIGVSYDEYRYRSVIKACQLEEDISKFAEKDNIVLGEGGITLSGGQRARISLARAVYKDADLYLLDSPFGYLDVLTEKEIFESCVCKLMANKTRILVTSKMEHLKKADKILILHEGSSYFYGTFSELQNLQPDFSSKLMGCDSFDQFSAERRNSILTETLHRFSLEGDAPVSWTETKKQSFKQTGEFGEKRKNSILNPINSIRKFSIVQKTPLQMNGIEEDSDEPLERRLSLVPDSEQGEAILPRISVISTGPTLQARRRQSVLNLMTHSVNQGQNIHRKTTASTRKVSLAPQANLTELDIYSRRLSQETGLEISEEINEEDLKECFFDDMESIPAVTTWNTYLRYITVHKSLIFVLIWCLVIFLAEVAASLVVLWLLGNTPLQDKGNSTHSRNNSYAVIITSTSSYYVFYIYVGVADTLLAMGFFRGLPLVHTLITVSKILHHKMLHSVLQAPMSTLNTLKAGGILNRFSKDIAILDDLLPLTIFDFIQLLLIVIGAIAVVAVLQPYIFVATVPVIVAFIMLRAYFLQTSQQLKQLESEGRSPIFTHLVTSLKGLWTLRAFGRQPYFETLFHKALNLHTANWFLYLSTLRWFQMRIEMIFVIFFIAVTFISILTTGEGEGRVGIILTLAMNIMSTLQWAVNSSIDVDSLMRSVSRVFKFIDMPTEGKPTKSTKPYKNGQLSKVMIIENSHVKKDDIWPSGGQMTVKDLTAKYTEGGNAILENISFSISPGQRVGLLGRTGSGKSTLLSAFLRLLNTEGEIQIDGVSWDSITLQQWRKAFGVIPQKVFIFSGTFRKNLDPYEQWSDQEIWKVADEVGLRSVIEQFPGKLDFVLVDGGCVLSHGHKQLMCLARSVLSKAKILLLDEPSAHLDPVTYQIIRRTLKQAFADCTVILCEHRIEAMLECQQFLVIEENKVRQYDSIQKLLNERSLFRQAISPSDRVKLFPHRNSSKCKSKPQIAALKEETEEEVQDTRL

Several values for one entry are separate records, joined by “and”; a condition that tells them apart may be missing. Equal entries are not always repeated. Out of some 10,000 compounds screened, about 15 (0.1%) were called active.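 Rule for the calls: active = highest signal at least 8 times the median of untreated cell-only control wells at some dose; inactive = the rest.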 Only a sample is shown.

Experiment [1] is described as follows: total CFTR protein upregulators, primary screen, cell-based, HeLa F508del-CFTR, immunofluorescence, viability (AID 1224863).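 For fold increase: total CFTR protein by anti-CFTR immunofluorescence in fixed cells.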 As to conditions: 24 h, stronger effect = higher value; min viability: measured here: HeLa viability, alamarBlue, dose 20, library dosed in µg/mL unless noted; viability: measured here: primary viability 10 ug/mL, library dosed in µg/mL unless noted. In general terms: Resazurin is reduced to fluorescent resorufin, in cell work by metabolically active cells.

The target of experiment [2] is Cystic fibrosis transmembrane conductance regulator (Homo sapiens) (UniProt P13569). The experiment is described as above. As to conditions: 24 h; fold increase: measured here: primary screen 10 ug/mL, library dosed in µg/mL, stronger effect = higher value unless noted; max fold increase: dose 10, library dosed in µg/mL, stronger effect = higher value unless noted; outcome: library dosed in µg/mL unless noted.

For `CCOC(=O)C1=C(CC)Nc2ccccc2N=C1NC(=O)C12CC3CC(CC(Cl)(C3)C1)C2`, in experiment [1], the viability is 85%. Also, in experiment [2], the fold increase came to 1.09 and the outcome was inactive.

Regarding `Cn1ccc(S(=O)(=O)N2CCN(C(=O)CCC(=O)c3cccs3)CC2)c1`, in experiment [1], the viability came out at 103%. In addition, in experiment [2], the fold increase was determined as 1.19 and the call was inactive.

As for `CCc1cc(OCCCCNC)ccc1Cl`, the viability in experiment [1] was 104%. In experiment [2], the fold increase came out at 1.06 and the outcome was inactive.

As to `Cc1c(C(=O)CN2C(=O)NC3(CCOc4ccccc43)C2=O)sc2ccccc12` (configuration not stated), the viability in experiment [1] is 115%. Moreover, in experiment [2], the fold increase amounted to 1.07 and the call was inactive.

As for `COC(=O)c1ccc(OCC(=O)c2ccc3c(c2)CCO3)c(OC)c1`, the viability in experiment [1] is 97%. In experiment [2], the fold increase was 1.01 and the result was inactive.

Turning to `CC(CCc1ccco1)NC(=O)N1CCN(Cc2nc3scc(-c4cccs4)c3c(=O)[nH]2)CC1` (configuration not stated), in experiment [1], the viability was 92%. Besides, in experiment [2], the fold increase was found to be 0.93 and the call was inactive.

`c1ccc2c(c1)ncn2CN1CCN(Cc2csc3ccccc23)CC1`: the viability in experiment [1] was 107%. In addition, in experiment [2], the fold increase is 1.18 and the outcome was inactive.

Take `Cc1cccc(CN2CCN(CN3C(=O)C(=O)N(C(C)C)C3=O)CC2)c1`: the viability in experiment [1] came out at 95%. Further, in experiment [2], the fold increase came to 1.02 and the call was inactive.

Regarding `CN(C)S(=O)(=O)N1CCN(C(=O)Nc2cccc3c2CCCC3)CC1`, the viability in experiment [1] was 102%. In addition, in experiment [2], the fold increase was 0.97 and the call was inactive.

On to `COCC(C)NC(=O)c1sccc1C` (configuration not stated), for which the viability in experiment [1] was 102%. Further, in experiment [2], the fold increase is 0.9 and the call was inactive.

For `CC(C)(C)OC(=O)N1CC=C(n2c(=O)n(CN3CCN(c4ccccc4)CC3)c3ccccc32)CC1`, the viability in experiment [1] is 98%. In addition, in experiment [2], the fold increase worked out at 1.06 and the outcome was inactive.

Take `COc1ccc(C)cc1-n1nnnc1SCC1CC1(Cl)Cl` (configuration not stated): in experiment [1], the viability worked out at 86%. Further, in experiment [2], the fold increase was determined as 0.87 and the result was inactive.

Take `Cn1nnnc1SCc1ncc(-c2ccc(F)cc2)o1`: in experiment [1], the viability is 94%. In experiment [2], the fold increase amounted to 1.03 and the result was inactive.

In the case of `CN(C)S(=O)(=O)c1ccc(CN2C(=O)NC(C)(c3ccco3)C2=O)o1` (configuration not stated), the viability in experiment [1] was 97%. In experiment [2], the fold increase was 0.98 and the call was inactive.

On to `COc1ccc(S(=O)(=O)Nc2ccc(N3CCCC3)cc2)cc1OC`, for which the viability in experiment [1] is 84%. Further, in experiment [2], the fold increase is 0.85 and the outcome was inactive.

Consider `N#Cc1ccc(CS(=O)(=O)N2CCCCCCC2)cc1`, for which the viability in experiment [1] is 95%. For the same compound, in experiment [2], the fold increase is 1.03 and the result was inactive.

Regarding `Nc1cnn(CCO)c1`, the viability in experiment [1] was 92%. Also, in experiment [2], the fold increase is 0.96 and the compound was called inactive.

On to `CC(c1cc2ccccc2o1)N(C)Cc1noc(C(C)(C)C)n1` (configuration not stated), for which the viability in experiment [1] amounted to 89%. In experiment [2], the fold increase was 0.88 and the compound was classed as inactive.

Consider `N#Cc1nncn1-c1ncnc2sc3c(c12)CCC3`, for which the viability in experiment [1] came out at 95%. Moreover, in experiment [2], the fold increase stood at 1.06 and the compound was called inactive.

`CCNc1nc(C)nc2sc(CC)cc12`: the viability in experiment [1] amounted to 84%. In addition, in experiment [2], the fold increase is 0.96 and the outcome was inactive.

Take `CCC(C)(C)NC(=O)CCNC(=O)/C=C/c1ccco1`: the viability in experiment [1] came to 80%. In experiment [2], the fold increase amounted to 0.85 and the compound was classed as inactive.

As for `CC(C)Sc1nc2cc(Cl)ccc2c(=O)n1CC1CCCO1` (configuration not stated), the viability in experiment [1] was determined as 90%. Besides, in experiment [2], the fold increase worked out at 0.87 and the call was inactive.

For `CC(C)(C)N=C1NN=C(c2cccc(F)c2)CS1`, in experiment [1], the viability was determined as 75%. In experiment [2], the fold increase amounted to 0.85 and the compound was classed as inactive.

As to `Clc1ccc(-n2nnnc2SCCCc2nc3ccccc3o2)cc1`, in experiment [1], the viability amounted to 84%. In experiment [2], the fold increase was found to be 0.85 and the compound was called inactive.

Consider `Cc1nn(-c2ccccc2)c2c1CC(C#N)(c1nc3ccccc3s1)C1CCCN21` (configuration not stated), for which the viability in experiment [1] worked out at 89%. In experiment [2], the fold increase is 1.29 and the compound was called inactive.

For `O=S(=O)(NCCc1ccc2c(c1)OCCO2)c1ccc2c(c1)CCC2`, the viability in experiment [1] came out at 95%. Also, in experiment [2], the fold increase worked out at 0.9 and the compound was called inactive.

With `C=CCn1c(SC(C)c2nnnn2-c2ccccc2)nnc1-c1ccoc1C` (configuration not stated), in experiment [1], the viability was determined as 93%. In addition, in experiment [2], the fold increase was found to be 1.01 and the compound was classed as inactive.

Turning to `Cc1nc(N2CCC(NS(C)(=O)=O)CC2)c2c3c(sc2n1)CCC3`, the viability in experiment [1] was 85%. In experiment [2], the fold increase was found to be 0.99 and the call was inactive.

For the compound `CS(=O)(=O)CCC(=O)Nc1nc2c(s1)CCC2`, in experiment [1], the viability is 92%. In addition, in experiment [2], the fold increase turned out to be 1.13 and the compound was classed as inactive.

For the compound `O=S(=O)(c1ccc(S(=O)(=O)N(Cc2ccc3c(c2)OCO3)C2CCCC2)cc1)N1CCCC1`, the viability in experiment [1] worked out at 98%. Moreover, in experiment [2], the fold increase was determined as 0.96 and the call was inactive.

Consider `CNC(=O)CN(C)c1ncnc2sc3c(c12)CCCC3`, for which the viability in experiment [1] turned out to be 94%. In experiment [2], the fold increase was 1.01 and the call was inactive.

In the case of `Nc1nccnc1C(=O)N1CCN(c2nccs2)CC1`, in experiment [1], the viability came out at 79%. Moreover, in experiment [2], the fold increase was determined as 1.03 and the call was inactive.

For the compound `CC[C@H](C)[C@H]1O[C@]2(CC[C@@H]1C)C[C@@H]1C[C@@H](C/C=C(\C)[C@@H](O[C@H]3C[C@H](OC)[C@@H](O[C@H]4C[C@H](OC)[C@@H](O)[C@H](C)O4)[C@H](C)O3)[C@@H](C)/C=C/C=C3\CO[C@@H]4[C@H](O)C(C)=C[C@@H](C(=O)O1)[C@]34O)O2`, in experiment [1], the viability is 25% [measured here: primary viability 25 uM, at 25 µM, library dosed in µM] and 48% [measured here: primary viability 25 uM, at 25 µM, library dosed in µM]. Besides, in experiment [2], the fold increase was 0.61 [measured here: primary screen single dose 25 uM, at 25 µM, library dosed in µM, stronger effect = higher value] and 0.72 [measured here: primary screen single dose 25 uM, at 25 µM, library dosed in µM, stronger effect = higher value]; the outcome is “inactive [library dosed in µM]”.

As for `COCCN1C(=O)C(=O)/C(=C(/O)c2ccccc2)C1c1cccc(Oc2ccccc2)c1` (configuration not stated), the viability in experiment [1] turned out to be 106%. Besides, in experiment [2], the fold increase was 0.99 and the result was inactive.

For the compound `Cc1cc(C(=O)Cn2nnn(-c3cccs3)c2=O)c(C)n1CCc1cccs1`, the viability in experiment [1] was determined as 91%. Moreover, in experiment [2], the fold increase was 0.85 and the compound was called inactive.

Take `O=C(CSc1nc(O)cc(=O)n1C1CCCC1)NC12CC3CC(CC(C3)C1)C2`: the viability in experiment [1] came to 85%. In addition, in experiment [2], the fold increase was found to be 0.96 and the compound was called inactive.

Regarding `CCSc1nnc(SC(C)c2ccc(F)cc2)s1` (configuration not stated), the viability in experiment [1] came out at 77%. Also, in experiment [2], the fold increase amounted to 0.8 and the compound was called inactive.

Consider `O=C(CC1CC2CCC1C2)N1CCN(c2cnccn2)CC1` (configuration not stated), for which, in experiment [1], the viability was found to be 83%. In experiment [2], the fold increase is 1 and the result was inactive.

On to `O=C(CC1CC2CCC1C2)Nc1cc(NC(=O)c2ccc3c(c2)OCO3)ccc1F` (configuration not stated), for which, in experiment [1], the viability is 78%. Moreover, in experiment [2], the fold increase was 0.79 and the compound was called inactive.

A word on the viability: it is a read-out of living cells in per cent, often relative to untreated cells.
